The data set relates to BT474 cells. The experiment in a line: Cytotoxicity assay (CellTiter-Glo, 5 d) in BT474 cells. The settings on record: BT474, FIG. 9, tested concentrations. Type of data set: cell-based. (Cellular ATP, detected with luciferase, serves as a proxy for viable cell number.)

On to “TRZ: IgG 1κ anti-HER2 trastuzumab TRZ; Herceptin, Roche (native Herceptin)”, for which the cytotoxicity entry is “minimal cytotoxicity”.

Values taken from patent US11628225B2, “Antibody-drug conjugates” (CHO PHARMA INC., priority 2016, dated 2023).
